From PubChem BioAssay AID504894 (National Center for Advancing Translational Sciences (NCATS), 2011)
Only a part is listed here, and it is no random draw. Activity calls are given as the source filed them. The call rests on the fitted dose curve; in most records, active means well fitted activation curve with a large enough effect; inconclusive means small, poorly fitted or top-dose-only effect, or another doubt; inactive means no such curve, though single readings can be large or run the other way.

test: Activators of T cell receptors: qHTS campaign; details: primary human leukocytes, anti-CD3, IL-2 HTRF, 48 h; at 9.22 µM (top of the series) unless noted; further: % of control where 0% means no effect
From the text: Normally activation of naive T cells requires two signals. 1. A signal through the T cell receptor (TCR) which provides antigen specificity to the response. 2. Signals through co-stimulatory molecules, which are necessary for proliferation, survival and cytokine production. In the absence of co-stimulatory signals T cells are not effectively activated, and may even be rendered anergic or unresponsive to subsequent signaling. This lack of costimulation has been shown in multiple model systems to be a major factor in the limited strength and effectiveness of anti-tumor T cell responses. The goal of this project is to identify small molecule compounds that will stimulate T cell activation in the presence of TCR signaling but in the absence of co-stimulatory signals, thereby allowing activation of naive T cells in the absence of co-stimulation. Identification of such compounds would have clear experimental and clinical applications in instances where desirable antigen-specific immune responses are not generated due to a lack of co-stimulation, for example in the generation of anti-tumor responses. In collaboration between the National Cancer Institute and NIH Chemical Genomics Center, a high-throughput amenable screen was developed to discover small molecules that co-stimulate and activate human T cell receptors. The screen will be carried out using a novel homogeneous time resolved fluorescence energy transfer (HTRF) assay to measure production of the cytokine IL-2 by activated T cells and will be tested against the NIH Molecular Libraries Small Molecule Repository (MLSMR). NIH Chemical Genomics Center [NCGC] NIH Molecular Libraries Probe Centers Network [MLPCN] MLPCN Grant: MH090820-01 Assay Submitter (PI): Richard Hodes, National Cancer Institute, NIH
Primary human leukocytes are incubated with a-CD3 beads and compounds for 48 hr. The amount of secreted IL-2 is then assayed with a HTRF IL-2 kit. The presence of IL-2 cytokine captures the detection reagents and brings the a-IL-2-K and a-IL-2-d2 into close proximity. Upon excitation with 320nm light, the europium cryptate is capable of transferring energy to acceptor molecules within close proximity, resulting in acceptor molecule emission at 665nm.

| SMILES | activation of IL-2 secretion |
| --- | --- |
| CC1=NCCc2c1[nH]c1ccccc21.O=[N+]([O-])c1cc([N+](=O)[O-])c(O)c([N+](=O)[O-])c1 | inactive: -1.8% [at 46.1 µM] |
| Cc1cc(C)cc(OP(C)(=O)Nc2ccc(C)cc2C)c1 (stereo unspecified) | inactive: 4.04% |
| CCOC(=O)c1ccc(NP(C)(=O)Oc2cc(C)cc(C)c2)cc1 (stereo unspecified) | inactive: 1.9% |
| COc1ccccc1OP(C)(=O)Nc1cccc(Br)c1 (stereo unspecified) | inactive: -0.0111% |
| CP(=O)(Nc1cccc(Br)c1)Oc1ccccc1 (stereo unspecified) | inactive: 14% |
| Cc1ccc(C)c(NP(C)(=O)Oc2ccccc2)c1 (stereo unspecified) | inactive: -4.41% |
| Cc1nc2ccc3ccccc3c2s1.O=[N+]([O-])c1cc([N+](=O)[O-])c(O)c([N+](=O)[O-])c1 | inactive: 0.928% |
| O=[N+]([O-])c1cc([N+](=O)[O-])c(-c2cnn(-c3ccccc3)c2)c([N+](=O)[O-])c1 | inactive: -8.93% |
| O=[N+]([O-])c1cc([N+](=O)[O-])c(Nc2nnnn2CCO)c([N+](=O)[O-])c1 | inactive: -2.05% |
| CC1=C2N=C(C=C3N=C(C(C)=C4[N-][C@@](C)([C@@H]5N=C1[C@](C)(CCC(=O)NC[C@@H](C)OP(=O)([O-])O[C@H]1[C@@H](O)[C@@H](n6cnc7cc(C)c(C)cc76)O[C@@H]1CO)[C@H]5CC(N)=O)[C@@](C)(CC(N)=O)[C@@H]4CCC(N)=O)[C@@](C)(CC(N)=O)[C@@H]3CCC(N)=O)C(C)(C)[C@@H]2CCC(N)=O.[C-]#N.[Co+3] | inactive: -6.01% |
| CP(=O)(Nc1ccc(SC(F)(F)F)cc1)Oc1ccccc1 (stereo unspecified) | inactive: -1.46% [at 46.1 µM] |
| CCCOc1ccc(NP(C)(=O)Oc2ccc(Cl)cc2)cc1 (stereo unspecified) | inactive: 4.6% |
| CN1CCCCC1COC(=O)C1(O)c2ccccc2CCc2ccccc21 (stereo unspecified) | inactive: -12.4% [at 46.1 µM] |
| COc1ccccc1OP(C)(=O)Nc1ccccc1 (stereo unspecified) | inactive: -2.69% |
| CP(=O)(Nc1ccccc1Br)Oc1ccccc1 (stereo unspecified) | inactive: 1.17% [at 46.1 µM] |
| CP(=S)(Nn1cnnc1)Oc1ccccc1 (stereo unspecified) | inactive: 4.26% |
| CCc1ccc(OP(C)(=O)N2CCN(c3ccc([N+](=O)[O-])cc3)CC2)cc1 (stereo unspecified) | inactive: -7.51% |
| CP(=O)(NC(=O)Nc1ccccc1)Oc1ccccc1 (stereo unspecified) | inactive: -3.68% |
| Cc1cc(C)cc(OP(C)(=O)Nc2ccc(SC(F)(F)F)cc2)c1 (stereo unspecified) | inactive: 5.98% [at 46.1 µM] |
| CP(=O)(Nc1ccc(SC(F)(F)F)cc1)Oc1ccc(Cl)cc1 (stereo unspecified) | inactive: -4.42% |
| Cc1cccc(C)c1OP(C)(=O)Nc1ccc(SC(F)(F)F)cc1 (stereo unspecified) | inactive: -4.61% [at 46.1 µM] |
